Source: ChEMBL document CHEMBL1142706, “Synthesis and evaluation of (pyridylmethylene)tetrahydronaphthalenes/-indanes and structurally modified derivatives: potent and selective inhibitors of aldosterone synthase” (J Med Chem, 2005)

Organism: Homo sapiens
Assay: In vitro IC50 ratio against human CYP11B1 to that of human CYP11B2
How it was run: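 IC50 ratio from V79 MZh hamster fibroblasts expressing human CYP11B1 or CYP11B2, each incubated with [4-14C]-11-deoxycorticosterone (100 nM) and inhibitor at no fewer than three concentrations; steroids extracted into ethyl acetate and quantified by HPTLC with phosphoimaging.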

Structure (SMILES) | Selectivity ratio
Clc1ccc2c(c1)CC/C2=C\c1ccncc1 | 0.2
Clc1ccc2c(c1)CC/C2=C/c1ccncc1 | 3.7
